# Conditions: cats
# [1] = single sub-cutaneous 40 mg/kg, 300 mg/ml in 10% propylene glycol in glycerol formal
substance,measurement,setting,value
Florfenicol butyrate [FFBut],peak / high serum concentrations of florfenicol,[1],4 to 5 µg/mL
same,period with serum florfenicol concentration above 1.0 ug/ml (the MIC),[1],5 to 6 days
same,"serum concentration course, florfenicol butyrate v. NUFLOR","subcutaneous 40 mg/kg each, butyrate 350 mg/ml",higher compared to NUFLOR® for days 2-6

# Source: patent US7662861B2 (IDEXX Laboratories, Inc., priority 2003, dated 2010)
